The record followed here is US5554631A, “5-pyrrolyl-6-halogeno-2-pyridylmethylsulfinyl benzimidazole derivatives” (Il-Yang Pharm. Co., Ltd., priority 1994, dated 1996).

Structures are written as SMILES.

This series concerns ICR (male, female) mouse. The conditions noted are these: oral, 987 mg/kg, 14 days. The method, then:
Five weeks aged ICR (male, female) mouse were pre-bred in the breeding cage for one week and then the animals showing a smooth gain in body weight were randomly selected and used in this test. The amount to be administered to the test animals was established on the basis of the maximum dose of 5,000 mg/kg with the common ratio of 1.5.
The test compounds in a powder were suspended in 0.5% methylcellulose and administered per oral using a lml syringe. The other specific conditions for administration are described in the following.
In the above test, the control group received only 0.5% methylcellulose.
(1) Clinical symptoms and death of test animals
The clinical symptoms and death of test animals caused by the test compounds were recorded immediately after administration of the test compounds and during the overall test period.

For the compound `COc1ccc2[nH]c([S+]([O-])Cc3ncc(C)c(OC)c3C)nc2c1` (stereo not shown) [Omeprazole, 5-methoxy-2-[[(4-methoxy-3,5-dimethyl-2-pyridinyl)methyl]sulfinyl]-1H-benzimidazole], the Lethality was 0/5.
